Results as given in patent publication US20220204473A1, “COMPOUND AS IRAK INHIBITOR” (SHANGHAI MEIYUE BIOTECH DEVELOPMENT CO., LTD., priority 2018, published 2022).

The chains behind the UniProt entries cited, without tags or fusion partners.
UniProt Q9NWZ3, whole entry: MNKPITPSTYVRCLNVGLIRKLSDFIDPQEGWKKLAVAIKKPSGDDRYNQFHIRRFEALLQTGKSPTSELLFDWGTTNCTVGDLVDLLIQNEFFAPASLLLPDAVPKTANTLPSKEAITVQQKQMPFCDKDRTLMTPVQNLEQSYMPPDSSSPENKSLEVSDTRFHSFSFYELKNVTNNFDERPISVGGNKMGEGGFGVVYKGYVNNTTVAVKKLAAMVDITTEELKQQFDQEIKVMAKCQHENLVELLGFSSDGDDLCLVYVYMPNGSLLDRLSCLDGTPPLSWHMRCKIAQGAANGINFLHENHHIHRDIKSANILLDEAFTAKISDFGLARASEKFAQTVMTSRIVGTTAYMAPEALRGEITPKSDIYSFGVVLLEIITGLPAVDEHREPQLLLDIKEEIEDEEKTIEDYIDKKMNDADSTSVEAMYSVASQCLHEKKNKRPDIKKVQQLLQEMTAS
UniProt P51617, whole entry: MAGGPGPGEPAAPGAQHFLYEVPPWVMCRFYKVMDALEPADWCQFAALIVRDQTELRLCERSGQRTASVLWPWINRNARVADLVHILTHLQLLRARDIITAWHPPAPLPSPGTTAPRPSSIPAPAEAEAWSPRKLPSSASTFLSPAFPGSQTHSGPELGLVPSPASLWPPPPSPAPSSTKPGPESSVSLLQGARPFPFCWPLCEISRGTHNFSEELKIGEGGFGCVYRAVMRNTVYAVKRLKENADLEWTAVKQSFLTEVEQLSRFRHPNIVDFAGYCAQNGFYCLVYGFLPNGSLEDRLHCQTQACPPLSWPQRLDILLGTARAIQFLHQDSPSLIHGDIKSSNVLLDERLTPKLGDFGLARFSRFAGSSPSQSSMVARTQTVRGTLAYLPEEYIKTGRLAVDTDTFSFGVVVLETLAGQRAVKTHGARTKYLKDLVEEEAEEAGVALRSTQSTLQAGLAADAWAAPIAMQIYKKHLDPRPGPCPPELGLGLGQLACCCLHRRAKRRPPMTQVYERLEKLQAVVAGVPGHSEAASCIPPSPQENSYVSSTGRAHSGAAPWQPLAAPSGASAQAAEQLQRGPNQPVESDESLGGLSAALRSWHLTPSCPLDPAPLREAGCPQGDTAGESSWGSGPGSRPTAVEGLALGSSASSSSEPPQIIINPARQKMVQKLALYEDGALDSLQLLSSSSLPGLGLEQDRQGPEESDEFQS
UniProt P08684, whole entry: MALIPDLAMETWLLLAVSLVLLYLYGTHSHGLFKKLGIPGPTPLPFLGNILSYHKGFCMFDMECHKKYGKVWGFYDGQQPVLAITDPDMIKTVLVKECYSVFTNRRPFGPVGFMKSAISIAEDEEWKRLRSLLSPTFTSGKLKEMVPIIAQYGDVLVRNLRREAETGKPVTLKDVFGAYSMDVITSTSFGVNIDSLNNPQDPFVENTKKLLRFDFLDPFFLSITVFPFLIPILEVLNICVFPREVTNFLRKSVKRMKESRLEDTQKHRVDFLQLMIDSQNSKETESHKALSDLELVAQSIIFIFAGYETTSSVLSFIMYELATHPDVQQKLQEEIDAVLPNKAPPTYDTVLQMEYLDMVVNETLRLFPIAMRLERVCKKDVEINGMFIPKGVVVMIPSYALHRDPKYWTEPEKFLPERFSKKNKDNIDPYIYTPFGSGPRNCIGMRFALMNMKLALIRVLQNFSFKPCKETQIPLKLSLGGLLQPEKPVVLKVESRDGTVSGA
UniProt P05177, whole entry: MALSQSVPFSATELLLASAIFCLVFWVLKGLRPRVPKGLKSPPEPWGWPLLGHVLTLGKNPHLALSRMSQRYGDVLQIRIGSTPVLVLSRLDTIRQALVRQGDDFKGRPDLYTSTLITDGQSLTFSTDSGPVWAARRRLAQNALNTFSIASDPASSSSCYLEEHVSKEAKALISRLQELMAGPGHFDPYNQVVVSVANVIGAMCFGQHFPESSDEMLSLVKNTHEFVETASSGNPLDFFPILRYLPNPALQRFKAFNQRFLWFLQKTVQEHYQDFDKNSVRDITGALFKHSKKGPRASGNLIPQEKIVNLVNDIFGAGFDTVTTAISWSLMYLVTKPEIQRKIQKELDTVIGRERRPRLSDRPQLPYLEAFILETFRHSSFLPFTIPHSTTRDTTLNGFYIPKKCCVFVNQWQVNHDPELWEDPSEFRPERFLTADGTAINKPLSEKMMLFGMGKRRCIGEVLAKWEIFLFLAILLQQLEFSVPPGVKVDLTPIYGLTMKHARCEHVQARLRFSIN
UniProt P11712, whole entry: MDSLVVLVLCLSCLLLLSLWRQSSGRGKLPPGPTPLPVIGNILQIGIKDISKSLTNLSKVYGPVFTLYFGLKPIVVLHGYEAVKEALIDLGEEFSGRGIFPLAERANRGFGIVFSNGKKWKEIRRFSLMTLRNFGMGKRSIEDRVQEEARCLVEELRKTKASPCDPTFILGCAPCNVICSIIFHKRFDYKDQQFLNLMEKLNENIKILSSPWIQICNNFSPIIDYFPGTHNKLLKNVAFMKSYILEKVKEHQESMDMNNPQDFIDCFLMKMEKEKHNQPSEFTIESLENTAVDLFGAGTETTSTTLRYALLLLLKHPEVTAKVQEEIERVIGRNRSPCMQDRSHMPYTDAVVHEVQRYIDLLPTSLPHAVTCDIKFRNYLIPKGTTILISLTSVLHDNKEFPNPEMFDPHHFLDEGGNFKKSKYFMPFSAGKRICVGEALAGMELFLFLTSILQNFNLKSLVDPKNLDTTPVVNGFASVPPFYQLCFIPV
UniProt P33261, whole entry: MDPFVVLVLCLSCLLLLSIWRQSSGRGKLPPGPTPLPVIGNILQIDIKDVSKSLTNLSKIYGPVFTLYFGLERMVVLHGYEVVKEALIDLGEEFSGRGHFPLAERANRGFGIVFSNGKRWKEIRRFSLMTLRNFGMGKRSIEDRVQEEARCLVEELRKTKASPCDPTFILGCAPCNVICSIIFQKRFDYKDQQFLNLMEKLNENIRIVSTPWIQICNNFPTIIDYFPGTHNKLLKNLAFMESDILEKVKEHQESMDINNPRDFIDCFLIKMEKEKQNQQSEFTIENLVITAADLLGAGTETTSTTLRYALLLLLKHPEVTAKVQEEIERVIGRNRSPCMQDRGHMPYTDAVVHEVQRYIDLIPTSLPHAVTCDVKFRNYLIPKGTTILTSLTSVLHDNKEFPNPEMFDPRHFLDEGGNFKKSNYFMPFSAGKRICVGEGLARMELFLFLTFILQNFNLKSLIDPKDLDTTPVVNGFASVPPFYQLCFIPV
UniProt P10635, whole entry: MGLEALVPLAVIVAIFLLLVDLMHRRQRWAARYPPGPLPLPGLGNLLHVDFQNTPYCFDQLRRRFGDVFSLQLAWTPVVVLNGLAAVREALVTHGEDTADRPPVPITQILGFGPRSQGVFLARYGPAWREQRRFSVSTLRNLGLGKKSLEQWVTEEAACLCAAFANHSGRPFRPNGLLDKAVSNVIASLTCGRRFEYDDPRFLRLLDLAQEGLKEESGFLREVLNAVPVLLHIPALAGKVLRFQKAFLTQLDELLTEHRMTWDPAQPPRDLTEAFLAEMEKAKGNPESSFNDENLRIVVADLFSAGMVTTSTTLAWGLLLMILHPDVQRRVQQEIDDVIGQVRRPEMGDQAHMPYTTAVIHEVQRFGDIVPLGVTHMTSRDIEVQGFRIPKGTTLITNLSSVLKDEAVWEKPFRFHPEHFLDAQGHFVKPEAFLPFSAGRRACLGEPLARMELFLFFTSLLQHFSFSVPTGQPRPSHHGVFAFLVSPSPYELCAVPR

Key:
human IRAK4 = human IRAK4 (Homo sapiens, UniProt Q9NWZ3); experiment: IRAK4 MSA (Mobility-Shift Assay) at Km ATP; conditions: read-out: IC50 for inhibiting human IRAK4 kinase; GST-IRAK4 1 nM, ATP 37 μM (Km)
[1] = Stability in human liver microsomes; conditions: ∞ = no obvious metabolism found during assay
[2] = Stability in rat liver microsomes; conditions: ∞ = no obvious metabolism found during assay
[3] = Stability in mouse liver microsomes; conditions: ∞ = no obvious metabolism found during assay
human IRAK1 = human IRAK1 (Homo sapiens, UniProt P51617); experiment: IRAK1 MSA (Mobility-Shift Assay) at Km ATP; assay type: biochemical
[4] = tested on: cytokine TNF-α in LPS-induced human PBMCs; experiment: Inhibition of cytokine TNF-α in LPS-induced human PBMC (ELISA); assay type: cell-based; conditions: read-out: IC50 (nM, TNF-α inhibition), 0.1 μg/mL LPS for 4 h
CYP3A4 = CYP3A4 (Homo sapiens, UniProt P08684); experiment: CYP450 inhibition in human liver microsomes, CYP3A4; assay type: in vitro ADME; conditions: read-out: IC50, subtype 3A4, probe midazolam
Experimental: This study was intended to investigate the inhibitory effect of the test compounds on five major CYP450 enzyme subtypes CYP1A2, 2C9, 2C19, 2D6 and 3A4 in human liver microsomes. The mixed human liver microsomes used in this assay were purchased from Corning (USA). The test compounds were co-incubated at 7 concentrations with human liver microsomes and five probe substrates (phenacetin for CYP1a2, diclofenac for CYP2C9, mephenytoin for CYP2C19, dextromethorphan for CYP2D6, midazolam for CYP3A4-M, mixed). The reaction was initiated by adding coenzyme NADPH, and terminated by adding acetonitrile containing internal standard. After the proteins were precipitated, the supernatant was centrifuged. The characteristic metabolites in the supernatant (acetaminophen for CYP1A2, 4-hydroxydiclofenac for CYP2C9, 4-hydroxymephenytoin for CYP2C19, dextrorphan for CYP2D6, 1-hydroxymidazolam for CYP3A4-M) were analyzed by LC-MS/MS. The influence of the test compounds on production of the characteristic metabolites was finally analyzed on the basis of the data obtained. A selective inhibitor (ketoconazole for CYP3A4-M) was used as positive control. All samples were tested in duplicate.

CYP1A2 = CYP1A2 (Homo sapiens, UniProt P05177)
CYP2C9 = CYP2C9 (Homo sapiens, UniProt P11712)
CYP2C19 = CYP2C19 (Homo sapiens, UniProt P33261)
CYP2D6 = CYP2D6 (Homo sapiens, UniProt P10635)
[5] = PK assay in rat (intravenous injection and oral gavage); conditions: male SD rat
[6] = tested on: Salmonella typhimurium TA98 and TA100; experiment: Mini-Ames assay in Salmonella typhimurium; conditions: TA98 and TA100, with or without S9 mixture
[7] = oral administration, 2 mpk, 5% DMSO + 15% Solutol + 80% Saline

COc1cc2nn(C3CN(CC(C)(C)O)C3)cc2cc1NC(=O)c1cccc(C(F)(F)F)n1
IC50 (human IRAK4): 0.026 µM | Stability test in liver microsomes t1/2, Human [1]: 2.62 h | Stability test in liver microsomes t1/2, Rat [2]: 2.03 h | Stability test in liver microsomes t1/2, Mouse [3]: 4.45 h

CC(C)(O)c1cc2nn([C@H]3CC[C@@](C)(O)CC3)cc2cc1NC(=O)c1cccc(C(F)(F)F)n1
IC50 (human IRAK4): 0.0031 µM | IC50 (human IRAK1; read-out: IRAK1 IC50, GST-IRAK1 3 nM, ATP 97 μM (Km)): 4.13 µM | IC50 (IRAK1)/IC50 (IRAK4) (human IRAK1; selectivity for IRAK4): 1331 | IC50 [4]: 146 nM | Stability test in liver microsomes t1/2, Human [1]: ∞ | Stability test in liver microsomes t1/2, Rat [2]: ∞ | Stability test in liver microsomes t1/2, Mouse [3]: ∞ | IC50 (CYP3A4): > 30 µM | IC50 (CYP1A2): > 30 µM | IC50 (CYP2C9): 25.6 µM | IC50 (CYP2C19): > 30 µM | IC50 (CYP2D6): > 30 µM

COc1cc2nn([C@H]3C[C@H](C(C)(C)O)C3)cc2cc1NC(=O)c1cccc(C(F)(F)F)n1
IC50 [4]: 75 nM | Stability test in liver microsomes t1/2, Human [1]: ∞ | Stability test in liver microsomes t1/2, Rat [2]: ∞ | Stability test in liver microsomes t1/2, Mouse [3]: 36.98 h | Area under curve AUC0-t ([5]; intravenous injection, 1 mpk): 2.91424 µg·h/mL | Area under curve AUC0-∞ ([5]; intravenous injection, 1 mpk): 3.02743 µg·h/mL | Average retention time MRT ([5]; intravenous injection, 1 mpk): 5.99 h | Clearance CL ([5]; intravenous injection, 1 mpk): 0.331 L/h/kg | Half life t1/2 ([5]; intravenous injection, 1 mpk): 5.48 h | Volume of distribution at steady state VZ ([5]; intravenous injection, 1 mpk): 2.69 L/kg | Peak concentration Cmax ([5]; intravenous injection, 1 mpk, 5% DMSO + 15% Solutol + 80% Saline): 0.90374 µg/mL | Area under curve AUC0-t [5, 7]: 5.02962 µg·h/mL | Area under curve AUC0-∞ [5, 7]: 5.77055 µg·h/mL | Average retention time MRT [5, 7]: 11.28 h | Bioavailability F [5, 7]: 86.29% | Half life t1/2 [5, 7]: 7.26 h | Peak concentration Cmax [5, 7]: 0.41349 µg/mL | Time to peak tmax [5, 7]: 4 h | Mini-Ames result [6]: negative
